These results are taken from publication doi:10.1101/2025.02.07.636106.

Chains of the proteins cited; added tags and fusions are not shown.
UniProt P60900, whole entry: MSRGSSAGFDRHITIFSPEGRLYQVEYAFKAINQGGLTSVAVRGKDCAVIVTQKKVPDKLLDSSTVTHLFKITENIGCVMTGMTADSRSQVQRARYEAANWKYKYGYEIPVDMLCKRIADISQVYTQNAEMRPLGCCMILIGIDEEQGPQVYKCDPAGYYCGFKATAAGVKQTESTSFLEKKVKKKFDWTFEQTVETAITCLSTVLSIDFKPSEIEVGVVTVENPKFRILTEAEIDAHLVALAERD
UniProt Q02388, whole entry: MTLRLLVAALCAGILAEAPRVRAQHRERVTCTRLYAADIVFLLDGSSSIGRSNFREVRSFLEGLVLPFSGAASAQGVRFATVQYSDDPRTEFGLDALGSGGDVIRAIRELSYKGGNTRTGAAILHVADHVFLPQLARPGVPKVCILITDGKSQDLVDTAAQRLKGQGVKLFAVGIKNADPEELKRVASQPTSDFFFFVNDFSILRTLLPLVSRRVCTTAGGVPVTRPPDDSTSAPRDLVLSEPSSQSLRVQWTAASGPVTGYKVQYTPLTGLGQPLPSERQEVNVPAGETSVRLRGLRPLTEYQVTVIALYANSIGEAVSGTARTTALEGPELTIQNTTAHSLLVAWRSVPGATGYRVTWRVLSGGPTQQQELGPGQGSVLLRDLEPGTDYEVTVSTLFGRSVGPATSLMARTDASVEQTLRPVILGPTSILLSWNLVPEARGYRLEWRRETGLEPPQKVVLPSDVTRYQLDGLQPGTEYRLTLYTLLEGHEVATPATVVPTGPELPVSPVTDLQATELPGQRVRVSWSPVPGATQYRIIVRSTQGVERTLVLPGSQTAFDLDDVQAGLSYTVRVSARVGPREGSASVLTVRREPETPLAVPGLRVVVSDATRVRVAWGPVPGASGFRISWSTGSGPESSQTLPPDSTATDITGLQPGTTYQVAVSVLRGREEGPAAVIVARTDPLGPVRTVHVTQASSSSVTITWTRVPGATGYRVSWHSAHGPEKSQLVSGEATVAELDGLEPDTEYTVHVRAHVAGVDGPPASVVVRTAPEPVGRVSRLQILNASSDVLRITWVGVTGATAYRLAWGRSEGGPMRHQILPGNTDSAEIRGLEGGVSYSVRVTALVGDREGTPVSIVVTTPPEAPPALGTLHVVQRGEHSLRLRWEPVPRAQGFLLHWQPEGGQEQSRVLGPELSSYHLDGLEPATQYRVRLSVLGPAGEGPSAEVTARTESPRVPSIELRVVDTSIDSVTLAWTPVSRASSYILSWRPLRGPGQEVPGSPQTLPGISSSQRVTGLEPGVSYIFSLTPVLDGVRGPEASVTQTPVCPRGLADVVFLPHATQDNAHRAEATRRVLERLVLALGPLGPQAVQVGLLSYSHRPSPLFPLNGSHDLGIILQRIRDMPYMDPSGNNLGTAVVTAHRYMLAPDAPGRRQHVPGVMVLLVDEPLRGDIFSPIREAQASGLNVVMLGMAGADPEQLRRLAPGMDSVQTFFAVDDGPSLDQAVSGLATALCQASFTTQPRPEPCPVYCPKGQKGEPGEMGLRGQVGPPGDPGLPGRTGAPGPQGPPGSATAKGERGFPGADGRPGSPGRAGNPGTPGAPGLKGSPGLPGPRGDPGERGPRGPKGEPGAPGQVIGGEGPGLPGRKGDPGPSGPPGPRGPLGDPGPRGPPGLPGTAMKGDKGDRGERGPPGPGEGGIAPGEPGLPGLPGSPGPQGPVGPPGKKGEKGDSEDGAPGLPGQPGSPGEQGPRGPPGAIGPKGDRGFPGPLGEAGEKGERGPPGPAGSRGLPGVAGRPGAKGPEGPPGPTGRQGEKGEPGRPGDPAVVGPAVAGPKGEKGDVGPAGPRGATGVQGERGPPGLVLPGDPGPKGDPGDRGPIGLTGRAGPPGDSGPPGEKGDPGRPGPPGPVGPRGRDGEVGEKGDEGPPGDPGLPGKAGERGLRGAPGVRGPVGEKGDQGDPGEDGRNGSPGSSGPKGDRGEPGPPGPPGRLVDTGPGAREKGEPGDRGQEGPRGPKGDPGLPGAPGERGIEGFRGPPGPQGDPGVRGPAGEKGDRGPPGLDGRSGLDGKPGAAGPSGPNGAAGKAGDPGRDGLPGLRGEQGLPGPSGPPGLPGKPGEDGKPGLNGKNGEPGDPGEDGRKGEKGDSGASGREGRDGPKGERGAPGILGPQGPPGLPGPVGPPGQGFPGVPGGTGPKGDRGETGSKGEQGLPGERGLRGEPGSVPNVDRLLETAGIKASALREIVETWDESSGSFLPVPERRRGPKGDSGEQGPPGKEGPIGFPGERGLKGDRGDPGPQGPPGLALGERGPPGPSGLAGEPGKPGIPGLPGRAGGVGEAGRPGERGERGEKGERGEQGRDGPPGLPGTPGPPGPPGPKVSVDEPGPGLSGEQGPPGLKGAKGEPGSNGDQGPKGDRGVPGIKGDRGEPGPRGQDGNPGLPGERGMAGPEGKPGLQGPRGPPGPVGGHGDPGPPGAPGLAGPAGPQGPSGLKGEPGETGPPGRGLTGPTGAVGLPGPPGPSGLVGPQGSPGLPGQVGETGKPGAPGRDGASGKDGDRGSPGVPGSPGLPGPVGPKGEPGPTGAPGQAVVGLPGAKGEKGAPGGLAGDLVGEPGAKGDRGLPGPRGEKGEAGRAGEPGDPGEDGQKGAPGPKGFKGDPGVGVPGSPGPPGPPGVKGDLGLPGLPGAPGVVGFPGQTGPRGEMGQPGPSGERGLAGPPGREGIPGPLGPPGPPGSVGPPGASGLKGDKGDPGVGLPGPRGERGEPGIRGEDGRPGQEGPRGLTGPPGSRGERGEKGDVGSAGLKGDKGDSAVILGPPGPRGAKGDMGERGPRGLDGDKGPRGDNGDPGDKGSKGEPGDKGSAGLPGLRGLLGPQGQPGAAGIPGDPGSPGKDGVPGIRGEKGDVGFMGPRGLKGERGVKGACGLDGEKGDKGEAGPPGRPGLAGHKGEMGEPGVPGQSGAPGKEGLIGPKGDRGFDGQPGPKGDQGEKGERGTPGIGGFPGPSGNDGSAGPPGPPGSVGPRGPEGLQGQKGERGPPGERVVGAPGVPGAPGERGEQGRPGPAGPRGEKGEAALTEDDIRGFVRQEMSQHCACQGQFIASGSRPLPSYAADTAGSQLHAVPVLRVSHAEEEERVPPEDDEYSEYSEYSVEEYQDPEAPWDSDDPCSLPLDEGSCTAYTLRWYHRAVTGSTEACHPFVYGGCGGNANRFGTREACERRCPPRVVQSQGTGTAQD
UniProt P26368, whole entry: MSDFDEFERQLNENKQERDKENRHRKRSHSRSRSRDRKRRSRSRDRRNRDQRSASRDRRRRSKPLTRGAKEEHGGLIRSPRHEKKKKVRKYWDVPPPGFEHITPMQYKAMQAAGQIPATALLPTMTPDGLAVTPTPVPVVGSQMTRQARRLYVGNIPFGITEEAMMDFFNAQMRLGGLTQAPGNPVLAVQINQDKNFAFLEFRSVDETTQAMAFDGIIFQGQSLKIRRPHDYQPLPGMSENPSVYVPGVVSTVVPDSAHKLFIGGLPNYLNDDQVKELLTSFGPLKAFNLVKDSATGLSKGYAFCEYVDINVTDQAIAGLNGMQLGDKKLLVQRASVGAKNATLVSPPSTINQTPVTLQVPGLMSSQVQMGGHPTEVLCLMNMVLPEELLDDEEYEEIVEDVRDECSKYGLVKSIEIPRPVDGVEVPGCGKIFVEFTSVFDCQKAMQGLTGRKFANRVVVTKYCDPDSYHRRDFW

The list shows a part of the results.

Experiment [1] has as its target Proteasome subunit alpha type-6 (UniProt P60900). The experiment is described as follows: co-fractionation; co-fractionation.
For experiment [2], the target named is Collagen alpha-1(VII) chain (UniProt Q02388). The experiment is described as follows: cross-link between two proteins; cross-linking mass spectrometry.
The target in experiment [3] is Splicing factor U2AF 65 kDa subunit (UniProt P26368). The experiment is described as above.

In the case of Proteasome subunit beta type-5, P28074, the “listed as a hit” value in experiment [1] was “yes”.

On to Kininogen-1, P01042, for which the “listed as a hit” value in experiment [2] is “yes”.

Turning to Splicing factor 3B subunit 1, O75533, in experiment [3], the “listed as a hit” value is “yes”.
